Amino acid sequences for entries named in this document (tags omitted). A change or cut given only in a name is not applied to a line headed by its entry.
UniProt Q13131: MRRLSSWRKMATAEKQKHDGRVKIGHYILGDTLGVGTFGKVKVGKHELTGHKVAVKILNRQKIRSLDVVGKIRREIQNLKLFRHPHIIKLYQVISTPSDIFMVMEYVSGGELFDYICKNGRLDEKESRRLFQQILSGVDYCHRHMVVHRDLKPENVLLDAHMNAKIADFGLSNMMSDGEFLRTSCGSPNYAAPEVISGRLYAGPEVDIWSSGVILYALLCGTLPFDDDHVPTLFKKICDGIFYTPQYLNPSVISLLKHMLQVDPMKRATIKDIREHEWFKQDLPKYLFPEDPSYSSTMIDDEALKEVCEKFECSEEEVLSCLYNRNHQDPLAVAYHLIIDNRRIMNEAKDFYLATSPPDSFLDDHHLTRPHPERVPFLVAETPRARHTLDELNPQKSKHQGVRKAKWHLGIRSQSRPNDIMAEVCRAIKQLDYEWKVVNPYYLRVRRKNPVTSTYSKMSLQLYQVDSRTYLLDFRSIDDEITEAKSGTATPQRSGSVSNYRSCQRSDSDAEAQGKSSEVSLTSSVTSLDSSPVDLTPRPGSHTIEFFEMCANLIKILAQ

According to ChEMBL document CHEMBL6103567, “A novel pyridine-2-one AMPK inhibitor: Discovery, mechanism, and in vivo evaluation in a hypoxic pulmonary arterial hypertension rat model” (Eur J Med Chem, 2025):

Biological target: 5'-AMP-activated protein kinase catalytic subunit alpha-1 (Homo sapiens, UniProt Q13131)

## c1cc(-c2cnn3cc(-c4ccc(OCCN5CCCCC5)cc4)cnc23)ccn1 [DORSOMORPHIN]
  IC50: 6.33 µM
